Values quoted from earlier work as cited in article PMC5691641.

Chains of the proteins cited; added tags and fusions are not shown.
UniProt Q07812, whole entry: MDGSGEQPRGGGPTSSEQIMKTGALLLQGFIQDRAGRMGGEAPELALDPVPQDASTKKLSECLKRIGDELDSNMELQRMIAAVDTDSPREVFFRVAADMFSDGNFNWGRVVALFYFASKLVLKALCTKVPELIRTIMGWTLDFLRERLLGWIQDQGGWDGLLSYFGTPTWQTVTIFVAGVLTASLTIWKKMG
UniProt O43521, whole entry: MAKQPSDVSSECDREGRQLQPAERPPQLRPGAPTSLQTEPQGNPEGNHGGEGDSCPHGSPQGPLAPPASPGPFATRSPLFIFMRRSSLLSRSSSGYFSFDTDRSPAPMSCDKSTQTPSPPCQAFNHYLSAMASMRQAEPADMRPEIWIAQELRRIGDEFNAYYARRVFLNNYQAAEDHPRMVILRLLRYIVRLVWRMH

Biological target: Bax (Homo sapiens) (UniProt Q07812)

- Kd: 3.1 µM
Substance: Bim (from UniProt O43521)
